Sequences of proteins named here, by UniProt entry; tags and fusion partners are left off. Residues count along the entry.
UniProt P42574, 14-175 limits assumed: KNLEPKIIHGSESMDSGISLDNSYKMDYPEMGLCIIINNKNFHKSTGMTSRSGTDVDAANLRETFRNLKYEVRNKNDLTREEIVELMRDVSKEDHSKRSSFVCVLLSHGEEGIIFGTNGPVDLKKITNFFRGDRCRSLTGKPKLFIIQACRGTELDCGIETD
UniProt P42574, 176-277 limits assumed: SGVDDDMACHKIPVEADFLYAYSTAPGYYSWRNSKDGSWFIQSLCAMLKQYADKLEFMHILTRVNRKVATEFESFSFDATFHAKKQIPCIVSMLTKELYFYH

According to patent US6762045B2, “Membrane derived caspase-3, compositions comprising the same and methods of use therefor” (Idun Pharmaceuticals, Inc., priority 2000, dated 2004):

Columns and labels:
[1] = target: membrane-derived caspases (Homo sapiens, UniProt P42574); assay: Kinetics of DEVD-amc hydrolysis by membrane-derived caspases; conditions: read-out: Km for hydrolysis of DEVD-amc by the membrane-derived caspases; substrate 1-200 μM
[2] = target: purified membrane derived caspase-3 (Homo sapiens, UniProt P42574); assay: DEVD-AMC cleavage by affinity purified membrane derived caspase-3 from 697 cells; conditions: read-out: KM value for the purified caspase; reactivated affinity purified membrane derived caspase-3

Compound `CC(=O)N[C@@H](CC(=O)O)C(=O)N[C@@H](CCC(=O)O)C(=O)N[C@H](C(=O)N[C@@H](CC(=O)O)C(=O)Nc1ccc2c(C)cc(=O)oc2c1)C(C)C` has a Km [1] of 10 µM and a Km [2] of 10 µM.
